One molecule from ChEMBL document CHEMBL3102731, “Structure-activity relationship studies and biological characterization of human NAD(+)-dependent 15-hydroxyprostaglandin dehydrogenase inhibitors” (Bioorg Med Chem Lett, 2014) can be followed below.

The structures appear in SMILES notation.

The experiment has as its target T1, 15-hydroxyprostaglandin dehydrogenase [NAD(+)] (Homo sapiens, UniProt P15428).
T1 sequence (P15428 whole entry): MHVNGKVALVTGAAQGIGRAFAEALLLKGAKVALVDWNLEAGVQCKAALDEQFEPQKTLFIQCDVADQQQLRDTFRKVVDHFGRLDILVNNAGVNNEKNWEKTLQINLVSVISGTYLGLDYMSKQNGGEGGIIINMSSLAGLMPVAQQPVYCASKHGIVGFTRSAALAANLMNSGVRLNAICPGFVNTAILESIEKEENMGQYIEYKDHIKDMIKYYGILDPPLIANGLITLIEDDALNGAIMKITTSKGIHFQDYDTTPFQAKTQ
The experiment can be described thus: Inhibition of PGDH (unknown origin).

`CC1(COc2ccc(CC3SC(=O)NC3=O)cc2)CCCCC1` (stereo unspecified) [CIGLITAZONE] came in with an IC50 of 2700 nM.
